This is an account of results in BindingDB's records for doi:10.1021/jm00051a003 (University of Washington, 1995).

The assay can be described thus: Tested for the binding affinity against the Delta opioid receptor in guinea pig brain using [3H]DPDPE.

For the compound `Oc1ccc2c3c1O[C@H]1[C@H](O)CC[C@@]4(O)[C@@H](C2)N(CC2CC2)CC[C@]314`, the IC50 is 26 nM.

Broadly, the IC50 is the concentration needed to halve the response being measured. A low value points to higher potency.
